Yeast mating assay B: variants of the scFv Ab-14

Target: peptide PDVDLGDISGINAS, taken from heptad repeat 2 (HR2) of SARS-CoV-2 spike.

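Phage display of a naive human antibody library on the peptide gave the parent. These sequences belong to a second round, designed from the earlier measurements on random variants of the parent. Group labels follow the data file (Ctrl: baseline library sampled from a position-specific scoring matrix, with some repeated check sequences; Rand: our label for a block that the file lists under HC and that is probably the random mutants of the ten best first-round binders; En: ensemble of fine-tuned language models; GP: Gaussian process model; HC: hill climbing; Gen: genetic algorithm; Gibbs: Gibbs sampling; a sequence that several methods proposed may carry one label only). The scFvs were displayed on barcoded MATa yeast, the peptide on MATalpha yeast. After mating in shaken culture at 30 °C for 16 h, diploids were selected and their barcode pairs sequenced. A regression on co-assayed BCL2-family reference pairs converts the normalised counts of each replicate to an apparent Kd. The assay was run in six technical replicates.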

The variants keep the heavy chain, the linker and the frameworks of Ab-14 (scFv order VH, a 15-residue (Gly4Ser)3 linker, VL).
VH: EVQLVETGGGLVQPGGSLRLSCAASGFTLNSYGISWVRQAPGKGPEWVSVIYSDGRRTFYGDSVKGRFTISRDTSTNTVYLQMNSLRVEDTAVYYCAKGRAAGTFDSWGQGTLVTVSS
VL: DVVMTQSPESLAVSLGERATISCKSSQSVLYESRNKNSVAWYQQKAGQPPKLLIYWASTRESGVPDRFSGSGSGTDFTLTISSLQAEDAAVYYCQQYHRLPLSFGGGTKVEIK

Variants are written as CDR1, CDR2 and CDR3 of the light chain (limits as in the source). Parent: KSSQSVLYESRNKNSVA, WASTRES, QQYHRLPLS. Affinities are written as log10 Kd with Kd in nM; a lower number is a better binder. A mean of the replicates is given; it leaves out those without a signal. "no signal" means that the variant was in the library but no mating with the target was seen in any replicate; the authors take this as a sign of poor binding, and no number exists. Values of this round are not directly comparable with the first-round values of the same sequences. The authors averaged sequences with at least three values out of six and counted those with two or fewer as poor binders. As a blank, each scFv also met three strains without target: over all light chain designs, 4% of these pairings were detected, typically at 2.64 and seldom below 1.59. The parent sequence was in this pool as ten entries: three were never detected, three once, and four in most replicates, with averages from 0.34 to 2.37.

CDR-L1,CDR-L2,CDR-L3,group,mean log10 Kd (nM),replicates with signal
TIAQAMDHLQRNKNNVA,DTNCRED,QDYNRLPLS,En_Gen,-0.31,6/6
KSSQSVLYESRAKNSVA,WATTRES,QQYIRLPIS,Ctrl,no signal,0/6
HLSPSVLYESRNKNNVA,NASTRES,QQYHRLPLS,GP_HC,-0.56,6/6
MLSEVLHMLGVAKNSIA,DLVIRAN,QQYHRLPLF,En_Gen,no signal,0/6
KISQSWLYESRNKNSVA,NASQRES,QQYHRLPLS,GP_Gen,-0.05,6/6
RIQMTDLEGRMAWNNIA,DMEESYR,QQYVRLPLY,En_Gibbs,0.65,6/6
KSSQSVPEESRNENSVA,WASTRES,QQYHRLPLS,Ctrl,1.57,3/6
KVTEMMAFLSSNRNSVA,DNSTRGS,QQYHRLPLS,En_HC,3.17,1/6
KSDQSVLYESRNKNSVA,HASTRED,QQYGRLPLS,GP_HC,0.44,6/6
KSSISDLGEKRNKNSVA,EASTRES,QQYHRLPLS,GP_HC,0.24,6/6
KLMQSELYESRNKNSVA,GASTRES,QQYHRLPLS,GP_Gen,-0.26,6/6
KSSQSVLGEDRNKNNVA,WASTRVS,QQYHRLPLS,Ctrl,0.61,6/6
TISQLTSSFSQNINNVA,EVSTRLN,QQYDRLPLA,En_Gen,0.61,6/6
KSSQSVLTESRDKNSVA,DASTRES,QQYHRLPLS,Ctrl,0.52,5/6
KLTMITGLEKVSNNNVA,EMETREV,QQYNRLPLS,En_Gen,0.37,6/6
HITYGMMVGGRHSKSIA,QAETRAK,QQYDRLPLI,En_Gen,1.63,2/6
NSSQSVLYESRNKNSVA,GGNTRES,QQYHRLPLS,GP_HC,1.40,6/6
MISNVMNTLTRQGNNVA,DLQNREN,QQYFRLPLS,En_Gen,1.15,1/6
KSSQSVLNESRNSNSVA,WASTRES,QQYHRLPLS,Ctrl,1.70,3/6
KVSQSWLYESRNKNSVA,GASFRES,QQYHRLPLS,GP_HC,0.18,6/6
KFSQSVLYESRLSNRVA,NASTRES,QQYHRLPLS,GP_HC,0.55,6/6
KSSPSFLYESRNKNSVA,EASTRES,QQYHRLPLS,GP_HC,0.09,6/6
KLEQSNLYESRNKNSVA,NASTRLS,QQYHRLPLS,GP_Gen,0.12,6/6
KSSQSVLYESRTKNSVA,WASTRES,QTEHRLPLS,Ctrl,no signal,0/6
KSSQSVLTESRTKNSVA,WASTRES,QQYHRLPWS,Ctrl,no signal,0/6
KLQWQQYGENAMEAAIA,NEGTVHQ,QQYSMLPLT,En_Gibbs,no signal,0/6
KSSQPVLYESRNKNSVA,HAFTRFH,QQYHRLPLS,Ctrl,2.13,1/6
KLSMITGHMSVSKNNVA,EMVTRVN,QQYARLPLS,En_Gen,0.83,6/6
KLQQSVLYEGRNKNSVA,QASQRSD,QQYHRLPLS,GP_Gibbs,-0.22,6/6
HLSQSVLYESRNKNSVA,NASTRYS,QQYHRLPLS,GP_Gen,-0.09,6/6
KLRQSTLYESRNKNSVA,HASTRES,QQYHRLPLT,GP_HC,0.45,6/6
KLSQSVLMEHRNKNSVA,WASTRES,QQYHRLPLS,Ctrl,1.18,6/6
KSSASVDNESRNKNSVA,DASTRES,QQYHRLPLS,GP_HC,0.00,6/6
KFSQSVLFQWRNKNSVA,DASTRES,QQYHRLPLS,GP_HC,0.04,6/6
KSSISVLYESGNKNSVA,WATTRES,QQYWRLPLS,Ctrl,3.14,3/6
MISQSFLIGSRAKNSVA,QTSTREN,QQYDRLPLS,En_HC,-0.03,6/6
KVSEFMRGLMSRKDSIA,DNETRES,QQYDRLPLS,En_Gen,2.07,5/6
TISQVMNTLTRHGNNVA,DLQEREE,QQYFRLPLE,En_Gen,0.12,6/6
KFSQSVDYEQRQKNSVA,NASTRMS,QQYHRLPLS,GP_Gibbs,0.72,6/6
IVSQLMLWGMHLKNSIA,EAQTRLN,QQYERLPLF,En_Gen,no signal,0/6
QIYQAMHTLMQAKDNVA,DVNERGD,QQYYRLPLS,En_Gen,0.27,6/6
KSSQSVLYESTNVNSVA,WASTRPS,QQYHRLELS,Ctrl,no signal,0/6
VMSQSVLYESRNKNSVA,WASTRES,QQYHRLPIS,Ctrl,1.06,6/6
FMEMDFDGNDVNRNSIA,SSEAVTR,QHYARLPLS,En_Gibbs,no signal,0/6
KSSGSVLYESRNKNNVA,MASTRES,QQYHRLPLS,Ctrl,1.28,6/6
KLSQSELYESRVKNSVA,GASTRES,QQYHRLPLS,GP_HC,0.05,6/6
KAEQSVLYPSRNKNSVA,QASTRES,QQYHRLPLS,Ctrl,0.59,6/6
KFSQSVPYESRNPNSVA,WASTRES,QCYHRLPLS,Ctrl,1.81,4/6
KLGATMNTESTKRNNVA,DLVMREN,QQYFRLPLS,En_Gen,1.15,3/6
TISQVMNTLTRHGNNVA,DLTEREV,QQYFRLPLE,En_Gen,0.34,6/6
KLSWSQLYESRNKNSVA,NASTRES,QQYHRLPLS,GP_Gen,-0.26,6/6
MIAQSLRGVGRNKNSVA,NAQTRES,QHYHRLPLS,En_HC,1.39,6/6
MISQLINMGQFAINSVA,QASIRCN,QQYDRLPLT,En_Gen,2.75,2/6
KLSQSVLYESRDKNSVA,WASTRES,QQYHRLPLP,Ctrl,no signal,0/6
KLSQSVEYESRNKNSVA,SASTRES,QQYHRLPLS,GP_Gen,-0.14,6/6
KLSQVTEWEMHNKDNVA,DLTTRGA,QDYHRLPLS,En_HC,0.23,6/6
KIMQSLNYEQFTVSNVA,GQETRER,QSYHRLPLS,En_HC,1.88,6/6
HISYSMQHLSKNKNNVA,NQQTRES,QQYHRLPLS,En_HC,0.14,6/6
KIQKYTYNEFLDRNHIA,EESTKVT,QQYFMLPLT,En_Gibbs,1.68,4/6
TLSDLMYMESRNVNSVA,DLVKREN,QQYHRLPLS,En_HC,0.12,6/6
QLDWYNTYATASASNIA,DVAQRAN,QQYMRLPLM,En_Gibbs,-0.41,6/6
KLQQSVQYESRNKNSVA,NASQRES,QQYHRLPLS,GP_Gen,0.29,6/6
KFSQSVLYESRNKNSVA,EASTREQ,QQYHRLPLS,GP_Gen,0.43,6/6
KISQSVLYESRNKNSVA,EGSTRES,QQYHRLPLS,GP_Gen,-0.24,6/6
KSSQSVLEEQRNKNSVA,RASTRES,QQYHVLPLS,Ctrl,1.53,4/6
KSSQSVAYESRNVNSVA,WASTRVS,QQYHRLPTS,Ctrl,no signal,0/6
KSSQSVLYESRNKNSVA,WASTREK,QQYHRLPES,Ctrl,no signal,0/6
KSGQGVLYESRNKNSVA,GASTEES,QQYHRLPLS,Rand,2.37,4/6
ATDHQEESGQEWEANVA,QDEQRAE,QQYHHLPLM,En_Gibbs,no signal,0/6
DVTVVDNGASKIQNSIA,HGVEKCD,QQYSRLPLA,En_Gibbs,-0.08,6/6
KMEQGVLYESRNKNSVA,GASQRES,QQYHRLPLS,GP_HC,-0.14,6/6
KVSQSHLYESRNKNNVA,EASTRES,QQYHRLPLS,GP_Gen,-0.43,6/6
KVSQSVLYESGTKNSVA,NASARES,QQYHRLPLS,GP_HC,-0.47,6/6
NMQMQDDRMQNAKQNVA,GVDMREE,QQYFRLPFL,En_Gibbs,0.07,6/6
KLSYSHQVESINKSNVA,EMVTRES,QQYDRLPLS,En_HC,2.38,6/6
AIDSHGLGTQEYYNSIA,EEHVKVR,QQYDRLPLS,En_Gibbs,1.16,2/6
KLSLGLGVQKQVEYNIA,NERLKTA,QHYDRLPLT,En_Gibbs,0.50,6/6
KVSQSVLYESRMKNSVA,HASTRCS,QQYHRLPLE,GP_HC,0.81,6/6

Extract of 4 entries:

CDR-L1,CDR-L2,CDR-L3,group,mean log10 Kd (nM),replicates with signal
TISQVMNTLTRHGNNVA,DLQEREE,QQYFRLPLE,En_Gen,0.12,6/6
HITYGMMVGGRHSKSIA,QAETRAK,QQYDRLPLI,En_Gen,1.63,2/6
RIQMTDLEGRMAWNNIA,DMEESYR,QQYVRLPLY,En_Gibbs,0.65,6/6
MLSEVLHMLGVAKNSIA,DLVIRAN,QQYHRLPLF,En_Gen,no signal,0/6

Values reported by Li et al. 2023, doi:10.1038/s41467-023-39022-2 (FLAb copy).